Results from patent publication US20040121316A1 (priority 2002, published 2004).

Tested on: MT-2 cells
Assay: Cytotoxicity Cell Culture Assay (CC50)
Conditions: read-out: Cytotoxicity CC50, 5 days, XTT

Q: `CCOC(=O)[C@H](C)NP(=O)(COc1ccc(C[C@H](NC(=O)O[C@H]2CO[C@H]3OCC[C@H]32)[C@H](O)CN(CC(C)C)S(=O)(=O)c2ccc(OC)cc2)cc1)N[C@@H](C)C(=O)OCC` was tested. Which CC50 did it give?
A: 60 µM
